# Experimental data from patent US8138193B2, “Fused pyrazine compounds useful for the treatment of degenerative and inflammatory diseases” (Janssen Pharmaceutica N.V., priority 2007, dated 2012).
# System: MMP1 expression by SFs
# Assay: 'MMP assay': MMP1 ELISA on supernatant of activated synovial fibroblasts
# Type: cell-based, human
# Conditions: each cytokine 25 ng/mL or THP1 supernatant 2-fold diluted, 72 h after addition
# Protocol: A 384-well format ELISA for measurement of MMP1 is developed. Various primary antibodies are tested, as well as various ELISA protocols. The following protocol is developed and validated to measure MMP1 levels in SF supernatant in 384 well plates: white Lumitrac 600 384 well plates (Greiner) are coated with 2 μg/mL anti-MMP1 antibody MAB1346 (Chemicon). The antibody is diluted in buffer 40 (1.21 g Tris base (Sigma), 0.58 g NaCl (Calbiochem) and 5 ml 10% NaN3 (Sigma) in 1 L milliQ water and adjusted to pH 8.5). After overnight incubation at 4° C., plates are washed with PBS (80 g NaCl, 2 g KCl (Sigma), 11.5 g Na2HPO4.7H2O and 2 g KH2PO4 in 10 L milliQ; pH 7.4) and blocked with 100 μL/well Casein buffer (2% Casein (VWR International) in PBS). Next day, casein buffer is removed from ELISA plates and replaced by 50 μL/well EC buffer (4 g casein, 2.13 g Na2HPO4 (Sigma), 2 g bovine albumin (Sigma), 0.69 g NaH2PO4.H2O (Sigma), 0.5 g CHAPS (Roche), 23.3 g NaCl, 4 mL 0.5 M EDTA pH 8 (Invitrogen), 5 mL 10% NaN3 in 1 L milliQ and adjusted to pH 7.0). 0.25 mM DTT (Sigma) is added to the thawed samples plates. After removal of the EC buffer, 20 μL of sample is transferred to the ELISA plates. […] Readout is performed on the Luminoscan Ascent Luminometer (Labsystems) with an integration time of 200 msec or with an Envision reader (Perkin Elmer). […]
substance,measurement,value
TNF-α: recombinant cytokine used to trigger MMP1 expression by SFs,induction of the MMP1 expression by SFs,3 fold
